System: Rhodococcus erythropolis strain HL PM-1
Conditions: control cells grown in the absence of DNP; substance added to 0.55 mM; 30° C.; FIG. 1

acetate
respiration (rate of O2 consumption) upon addition of the substance: did

— US6461856B2 (priority 1999, dated 2002)
